Test system: hematopoietic stem/progenitor cells (HSPCs)
Assay: HSPC mobilization into peripheral blood, colony forming unit (CFU) assay
Conditions: mice, single dose

**Q.** `COCCOCCOCCOCCOCCOCCOCCOCCOCCOCCOCCOCCOCCOCCOCCOCCOCCOCCOCCOCCOCCOCCOCCOCCn1cc(COCCOCCOCc2cc(OC)c(-c3ccc(C[C@H](NC(=O)[C@@H]4CCCN4S(=O)(=O)c4cc(Cl)cc(Cl)c4)C(=O)O)cc3)c(OC)c2)nn1` was tested. Which “No. CFU (×10^3)/mL ± SD, 0.25 hr” value (0.25 hr post dose (TABLE 8)) did it give?
**A.** The value was 2.71 ± 0.63 (×10^3)/mL.

**Q.** And the “No. CFU (×10^3)/mL ± SD, 2 hr” value (2 hr post dose (TABLE 8))?
**A.** Its value is 3.97 ± 0.96 (×10^3)/mL.

**Q.** And the “No. CFU (×10^3)/mL ± SD, 4 hr” value (4 hr post dose (TABLE 8))?
**A.** The value was 3.30 ± 0.22 (×10^3)/mL.
